Results: EP4729516A1, “S[…] DERIVATIVE, INTERMEDIATE, PREPARATION METHOD THEREFOR AND USE THEREOF” (Jiangsu NHWA Pharmaceutical Co., Ltd, priority 2023, dated 2024)

Protein sequences, listed by entry. Tags and fused reporters are not part of them.
UniProt P35348, whole entry: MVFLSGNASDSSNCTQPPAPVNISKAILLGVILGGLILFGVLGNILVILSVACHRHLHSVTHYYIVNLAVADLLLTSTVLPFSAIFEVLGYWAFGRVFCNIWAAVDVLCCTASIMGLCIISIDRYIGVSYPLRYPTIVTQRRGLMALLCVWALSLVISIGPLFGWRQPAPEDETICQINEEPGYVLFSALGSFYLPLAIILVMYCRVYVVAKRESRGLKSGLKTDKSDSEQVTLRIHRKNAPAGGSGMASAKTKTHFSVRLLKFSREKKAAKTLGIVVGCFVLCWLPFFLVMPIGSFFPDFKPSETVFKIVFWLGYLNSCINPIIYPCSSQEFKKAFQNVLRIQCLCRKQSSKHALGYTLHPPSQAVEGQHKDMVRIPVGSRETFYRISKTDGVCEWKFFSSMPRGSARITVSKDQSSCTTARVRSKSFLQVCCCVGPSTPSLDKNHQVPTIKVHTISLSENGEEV
UniProt P18089, whole entry: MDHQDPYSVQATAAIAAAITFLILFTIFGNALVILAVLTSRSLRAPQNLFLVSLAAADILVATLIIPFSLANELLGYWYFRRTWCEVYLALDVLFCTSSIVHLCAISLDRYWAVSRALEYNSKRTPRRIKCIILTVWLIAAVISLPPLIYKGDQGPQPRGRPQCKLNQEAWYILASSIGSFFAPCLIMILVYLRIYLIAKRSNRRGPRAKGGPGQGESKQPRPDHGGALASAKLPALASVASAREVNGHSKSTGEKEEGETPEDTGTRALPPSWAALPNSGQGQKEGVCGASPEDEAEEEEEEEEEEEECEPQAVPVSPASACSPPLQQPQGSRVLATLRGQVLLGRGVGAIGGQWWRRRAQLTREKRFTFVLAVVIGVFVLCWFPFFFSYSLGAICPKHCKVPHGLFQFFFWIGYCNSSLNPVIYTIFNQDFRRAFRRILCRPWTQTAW
UniProt P08913, whole entry: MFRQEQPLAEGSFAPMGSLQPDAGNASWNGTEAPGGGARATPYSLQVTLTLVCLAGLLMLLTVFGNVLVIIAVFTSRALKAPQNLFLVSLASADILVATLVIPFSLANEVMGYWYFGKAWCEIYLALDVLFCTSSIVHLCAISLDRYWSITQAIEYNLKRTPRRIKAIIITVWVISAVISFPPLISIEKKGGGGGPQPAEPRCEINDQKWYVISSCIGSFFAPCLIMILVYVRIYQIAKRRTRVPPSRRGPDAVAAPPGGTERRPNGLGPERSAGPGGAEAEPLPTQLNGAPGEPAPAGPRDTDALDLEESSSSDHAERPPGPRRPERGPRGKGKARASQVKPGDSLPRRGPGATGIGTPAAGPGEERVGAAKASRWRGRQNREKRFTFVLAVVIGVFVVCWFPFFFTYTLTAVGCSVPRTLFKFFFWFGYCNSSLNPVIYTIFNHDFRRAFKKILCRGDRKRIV
UniProt P18825, whole entry: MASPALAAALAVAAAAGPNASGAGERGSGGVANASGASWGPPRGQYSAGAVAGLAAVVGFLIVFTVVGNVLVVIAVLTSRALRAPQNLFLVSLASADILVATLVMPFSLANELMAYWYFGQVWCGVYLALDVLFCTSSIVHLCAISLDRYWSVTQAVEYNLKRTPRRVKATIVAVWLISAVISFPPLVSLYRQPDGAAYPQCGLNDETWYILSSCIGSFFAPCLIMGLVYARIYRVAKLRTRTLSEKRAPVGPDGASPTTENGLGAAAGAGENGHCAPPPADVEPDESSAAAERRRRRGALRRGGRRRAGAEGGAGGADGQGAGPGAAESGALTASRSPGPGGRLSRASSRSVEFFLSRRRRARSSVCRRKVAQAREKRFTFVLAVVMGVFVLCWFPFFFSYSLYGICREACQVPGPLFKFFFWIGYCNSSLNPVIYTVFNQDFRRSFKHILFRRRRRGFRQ

Tests used:
[1] = target: α1A receptor (Homo sapiens, UniProt P35348); test: Competitive receptor binding assay, α1A (3H-Prazosin, CHO-K1-α1A membranes); settings: read-out: Binding α1A
[2] = target: α1A adrenoceptor (Homo sapiens, UniProt P35348); test: Agonist screening mode IP-One assay, 293-α1A cells; format: cell-based; settings: read-out: Function α1A
[3] = target: α2B adrenoceptor (Homo sapiens, UniProt P18089); test: Agonist screening mode IP-One assay, CHO-α2B/Gα15 cells; format: cell-based; settings: read-out: Function α2B
[4] = target: α2B receptor (Homo sapiens, UniProt P18089); test: Competitive receptor binding assay, α2B (3H-RX821002, CHO-K1-α2B membranes); settings: read-out: Binding α2B
[5] = target: α2A receptor (Homo sapiens, UniProt P08913); test: Competitive receptor binding assay, α2A (3H-RX821002, CHO-K1-α2A membranes)
[6] = test system: Male SD rats; test: Hypnotic efficacy: loss of righting reflex (LORR) in rats
[7] = target: α2C receptor (Homo sapiens, UniProt P18825); test: Competitive receptor binding assay, α2C (3H-RX821002, CHO-K1-α2C membranes); settings: read-out: Binding α2C
[8] = target: α2C adrenoceptor (Homo sapiens, UniProt P18825); test: Agonist screening mode IP-One assay, CHO-α2C/Gα15 cells; format: cell-based; settings: read-out: Function α2C
[9] = target: α2A adrenoceptor (Homo sapiens, UniProt P08913); test: Agonist screening mode cAMP assay, 293-α2A cells; format: cell-based
[10] = in words, compared with dexmedetomidine hydrochloride, rats
[11] = loss of righting reflex, male SD rats, tail vein injection, dose twice the ED50, 10 rats per group

Structure (SMILES): C[C@H](c1c[nH]cn1)c1cc(F)cc2c1CCC2
- Ki [1]: 806 nM
- EC50 [2]: 48.2 nM
- EC50 [3]: 4.77 nM
- Ki [4]: 39.2 nM
- Binding α1A/2A ([5]; ratio of α1A to α2A binding values): 3.3 nM
- Ki ([5]; read-out: Binding α2A, Ki, CHO-K1-α2A membranes, 3H-RX821002): 248 nM
- duration [6, 10]: significantly shorter
- hypnotic onset time [6, 10]: comparable to or slightly longer
- ED50 ([6]; loss of righting reflex, male SD rats, tail vein injection over 10 s, sequential method): 0.0702 mg/kg
- Onset time [6, 11]: 71.20±17.71 S
- duration [6, 11]: 1751.50±672.18 S
- induce sleep in rats ([6]; time to induce sleep, rats, dose twice the ED50): ≤ 5 min
- Ki [7]: 32.5 nM
- EC50 [8]: 5 nM
- Function α1A/2A ([9]; ratio of α1A to α2A EC50): 0.5 nM
- EC50 ([9]; read-out: Function α2A, EC50, cAMP-Gi, 293-α2A cells, Forskolin 1 µM): 93.8 nM
